Reference: patent US9079895B2, “Morpholino compounds, uses and methods” (University of Dundee, priority 2012, dated 2015)
Several values for one entry are separate records, joined by “and”; a condition that tells them apart may be missing. Equal values may be shown once. Read-outs that look alike come from different tables or passages of the source.

Chains of the proteins cited; added tags and fusions are not shown.
UniProt P08908, whole entry: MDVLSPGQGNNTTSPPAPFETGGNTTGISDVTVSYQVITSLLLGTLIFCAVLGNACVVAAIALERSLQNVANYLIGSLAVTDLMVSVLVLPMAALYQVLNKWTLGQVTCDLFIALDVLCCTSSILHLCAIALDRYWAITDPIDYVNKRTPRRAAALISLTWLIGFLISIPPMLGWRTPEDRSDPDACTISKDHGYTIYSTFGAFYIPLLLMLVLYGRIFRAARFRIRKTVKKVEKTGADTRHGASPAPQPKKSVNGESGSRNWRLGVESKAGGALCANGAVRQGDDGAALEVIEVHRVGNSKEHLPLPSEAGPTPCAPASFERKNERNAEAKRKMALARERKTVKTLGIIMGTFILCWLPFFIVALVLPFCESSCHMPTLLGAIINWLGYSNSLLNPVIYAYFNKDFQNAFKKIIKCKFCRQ
UniProt P25100, whole entry: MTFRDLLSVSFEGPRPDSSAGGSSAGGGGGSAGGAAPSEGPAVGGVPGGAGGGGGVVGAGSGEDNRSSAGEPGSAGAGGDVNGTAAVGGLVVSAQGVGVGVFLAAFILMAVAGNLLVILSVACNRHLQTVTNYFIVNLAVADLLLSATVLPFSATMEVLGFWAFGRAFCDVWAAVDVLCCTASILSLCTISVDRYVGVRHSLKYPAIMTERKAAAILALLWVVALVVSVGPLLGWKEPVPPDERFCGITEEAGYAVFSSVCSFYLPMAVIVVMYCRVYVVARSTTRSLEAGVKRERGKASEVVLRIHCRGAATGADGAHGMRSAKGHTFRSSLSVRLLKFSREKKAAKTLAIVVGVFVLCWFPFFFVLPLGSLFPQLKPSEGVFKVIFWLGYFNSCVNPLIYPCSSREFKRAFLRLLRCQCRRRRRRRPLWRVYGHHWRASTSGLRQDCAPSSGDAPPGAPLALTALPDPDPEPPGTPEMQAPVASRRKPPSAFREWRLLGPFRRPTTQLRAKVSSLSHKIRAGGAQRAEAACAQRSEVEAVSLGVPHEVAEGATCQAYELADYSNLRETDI
UniProt P21917, whole entry, species assumed: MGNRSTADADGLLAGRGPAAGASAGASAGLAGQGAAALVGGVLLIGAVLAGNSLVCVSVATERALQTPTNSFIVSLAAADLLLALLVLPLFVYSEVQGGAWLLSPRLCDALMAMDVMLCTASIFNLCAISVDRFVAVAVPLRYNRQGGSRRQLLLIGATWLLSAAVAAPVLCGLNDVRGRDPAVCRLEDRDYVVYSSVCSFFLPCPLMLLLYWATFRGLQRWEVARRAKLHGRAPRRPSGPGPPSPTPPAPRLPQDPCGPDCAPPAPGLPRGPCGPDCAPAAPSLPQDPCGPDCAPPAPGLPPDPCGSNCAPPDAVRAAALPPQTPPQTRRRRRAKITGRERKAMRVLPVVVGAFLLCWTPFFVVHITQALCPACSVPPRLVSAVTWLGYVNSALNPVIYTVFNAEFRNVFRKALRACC
UniProt P41595, whole entry: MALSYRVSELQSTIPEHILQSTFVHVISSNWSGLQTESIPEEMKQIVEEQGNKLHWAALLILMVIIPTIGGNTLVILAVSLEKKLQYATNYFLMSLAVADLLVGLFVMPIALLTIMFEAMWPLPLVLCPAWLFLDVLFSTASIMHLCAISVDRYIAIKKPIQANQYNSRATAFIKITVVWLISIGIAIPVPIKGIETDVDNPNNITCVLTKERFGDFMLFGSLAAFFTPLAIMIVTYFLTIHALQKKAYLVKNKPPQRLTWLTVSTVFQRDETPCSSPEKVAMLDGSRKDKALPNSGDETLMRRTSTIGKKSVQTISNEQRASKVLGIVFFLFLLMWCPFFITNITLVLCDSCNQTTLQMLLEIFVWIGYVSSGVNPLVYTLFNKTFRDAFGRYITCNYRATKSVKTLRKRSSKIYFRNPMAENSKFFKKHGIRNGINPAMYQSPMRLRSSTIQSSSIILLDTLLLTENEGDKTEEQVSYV

Assays:
[1] = target: 5HT1a receptor (Homo sapiens (Human), UniProt P08908); assay: Secondary radioligand binding assay, 5HT1a; conditions: average of at least two experiments
[2] = target: Alpha1D adrenergic receptor (Homo sapiens (Human), UniProt P25100); assay: Secondary radioligand binding assay, Alpha1D; conditions: average of at least two experiments
[3] = target: dopamine D4 receptor (Homo sapiens (Human), UniProt P21917); assay: Secondary radioligand binding assay, D4
[4] = target: 5HT2b receptor (Homo sapiens (Human), UniProt P41595); assay: Secondary radioligand binding assay, 5HT2b; conditions: average of at least two experiments;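 note: competition binding against a radioligand on membranes from transfected cell lines, 1.5 h incubation at room temperature, filter-retained radioactivity counted by liquid scintillation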
[5] = receptor binding, average of at least two experiments, read-out: Ki D4

SMILES	Ki [1] [nM]	Ki [3, 5]	other results
O=C(CN1CCO[C@@H](COc2ccccn2)C1)N1CCc2ccccc21 [Compound 14r, (R)-1-(Indolin-1-yl)-2-(2-((pyridin-2-yloxy)methyl)morpholino)ethanone]	7320	–	–
Cc1ccnc(OC[C@H]2CN(CC(=O)N3CCc4ccccc43)CCO2)c1 [Compound 16r]	2300	–	–
c1ccc(OC[C@@H]2CN(CCN3CCc4ccccc43)CCO2)cc1 [Compound 19s, (S)-4-(2-(Indolin-1-yl)ethyl)-2-(phenoxymethyl)morpholine]	–	–	Ki [2]: 2310 nM
Clc1cccc(OC[C@H]2CN(CCN3CCc4ccccc43)CCO2)c1 [Compound 23r, (R)-2-((3-Chlorophenoxy)methyl)-4-(2-(indolin-1-yl)ethyl)morpholine]	–	1670 nM	–
Clc1cccc(OC[C@@H]2CN(CCN3CCc4ccccc43)CCO2)c1 [Compound 23s, (S)-2-((3-chlorophenoxy)methyl)-4-(2-(indolin-1-yl)ethyl)morpholine]	545	< 1000 nM and 146 nM	–
COc1cccc(OC[C@H]2CN(CCN3CCc4ccccc43)CCO2)c1 [Compound 25r, (R)-4-(2-(Indolin-1-yl)ethyl)-2-((3-methoxyphenoxy)methyl)morpholine]	–	–	Ki [4]: 2690 nM
COc1cccc(OC[C@@H]2CN(CCN3CCc4ccccc43)CCO2)c1 [Compound 25s, (S)-4-(2-(Indolin-1-yl)ethyl)-2-((3-methoxyphenoxy)methyl)morpholine]	–	–	Ki [2]: 6450 nM; Ki [4]: 658 nM
Clc1cncc(OC[C@H]2CN(CCN3CCc4ccccc43)CCO2)c1 [Compound 27r, (R)-2-(((5-Chloropyridin-3-yl)oxy)methyl)-4-(2-(indolin-1-yl)ethyl)morpholine]	–	3620 nM	Ki ([3]; read-out: Ki dopamine D4 (relatively high affinity)): < 1000 nM
Clc1cncc(OC[C@@H]2CN(CCN3CCc4ccccc43)CCO2)c1 [Compound 27s, (S)-2-(((5-Chloropyridin-3-yl)oxy)methyl)-4-(2-(indolin-1-yl)ethyl)morpholine]	–	90 nM and < 1000 nM	–
